Drawing on ChEMBL document CHEMBL2331380, “Evaluation of potential Myt1 kinase inhibitors by TR-FRET based binding assay” (Eur J Med Chem, 2013), this text covers Ratio IC50 for one compound.

The experiment is filed under the species Homo sapiens. Nature of the experiment: Selectivity ratio of IC50 for Myt1 kinase (unknown origin) to IC50 for Wee1 (unknown origin).

Regarding `CCN(CC)CCOc1ccc(Nc2ncc3cc(-c4c(Cl)cccc4Cl)c(=O)n(C)c3n2)cc1`, the Ratio IC50 came out at 3.
